According to patent US20020173491A1, “DAPD combination therapy with inosine monophosphate dehydrogenase inhibitor” (priority 2000, published 2002):

Test system: PBMCs
Assay: XTT based cytotoxicity assay, PBMC
Assay type: cell-based
Conditions: at concentrations up to 1 MM

SMILES: NC(=O)c1ncn([C@@H]2O[C@H](CO)[C@@H](O)[C@H]2O)n1 [RBV, 1-β-D-ribofuranosyl-1,2,4-triazole-3-carboxamide]
- toxicity to PBMCs: not toxic
